Assay results as given in patent US20090311217A1, “3-SUBSTITUTED-1H-INDOLE COMPOUNDS, THEIR USE AS MTOR KINASE AND PI3 KINASE INHIBITORS, AND THEIR SYNTHESES” (priority 2008, published 2009).

Assays:
Format in all cases: biochemical
PI3K-gamma = PI3K-gamma (Homo sapiens, UniProt P48736); assay: PI3K-gamma fluorescence polarization assay; conditions: PI3Kγ Avg. IC50
Experimental: PI3K-Alpha, PI3K-Beta, PI3K-Gamma, and PI3K-delta Fluorescence Polarization Assay Protocols
PI3-Kinase reactions were performed in 5 mM HEPES, pH 7, 2.5 mM MgCl2, and 25 μM ATP, with diC8-PI(4,5)P2 (Echelon, Salt Lake City Utah) as substrate. Nunc 384-well black polypropylene fluorescent plates were used for PI3K assays. Reactions were quenched by the addition of EDTA to a final concentration of 10 mM. Final reaction volumes were 10 μl. For evaluation of PI3K inhibitors, 5 ng of enzyme (PI3K-alpha, beta, gamma, or delta) and 2.5 μM of substrate was used per […] reaction volume, and inhibitor concentrations ranged from 100 μM to 20 μM; the final level of DMSO in reactions never exceeded 2%. Reactions were allowed to proceed for one hour at 25° C. After 1 hour, GST-tagged GRP1 (general receptor for phosphoinositides) PH domain fusion protein was added to a final concentration of 100 nM, and BODIPY-TMRI(1,3,4,5)P4 (Echelon) was also added to a final concentration of 5 nM. Final sample volumes were 25 μl with a final DMSO concentration of 0.8%. Assay Plates were read on Perkin-Elmer Envision plate readers with appropriate filters for Tamra [BODIPY-TMRI(1,3,4,5)P4]. Data obtained were used to calculate enzymatic activity and enzyme inhibition by inhibitor compounds.

PI3K-alpha = PI3K-alpha (Homo sapiens, UniProt P42336); assay: PI3K-alpha fluorescence polarization assay; conditions: read-out: PI3Kα Avg. IC50
human TOR = target: T1, human TOR (Homo sapiens, UniProt P42345); assay: mTOR enzyme assay (DELFIA, His6-S6K substrate); conditions: read-out: mTOR Kinase Avg. IC50
T1 construct: FLAG

| Compound | IC50 (PI3K-gamma) [µM] | further results |
| --- | --- | --- |
| CNC(=O)Oc1ccc2c(c1)C(=O)/C(=C/c1cn(CCN3CCN(C)CC3)c3ccc(OC)cc13)O2 [Compound 546, (2Z)-2-({5-methoxy-1-[2-(4-methylpiperazin-1-yl)ethyl]-1H-indol-3-yl}methylene)-3-oxo-2,3-dihydro-1-benzofuran-5-yl methylcarbamate] | 7.36 |  |
| COc1ccc2c(c1)c(/C=C1\Oc3cc(OC(=O)N(C)c4ccccc4)ccc3C1=O)c(C)n2CCN1CCN(C)CC1 [Compound 558, (2Z)-2-({5-methoxy-2-methyl-1-[2-(4-methylpiperazin-1-yl)ethyl]-1H-indol-3-yl}methylene)-3-oxo-2,3-dihydro-1-benzofuran-6-yl methyl(phenyl)carbamate] | 2.17 |  |
| Cn1cc(/C=C2\Oc3cc(O)cc(O)c3C2=O)c2ccccc21 [Example 16, (2Z)-4,6-dihydroxy-2-[(1-methyl-1H-indol-3-yl)methylene]-1-benzofuran-3(2H)-one] |  | IC50 (PI3K-alpha): 1.11 µM |
| Cn1cc(C=C2Oc3cc(O)cc(O)c3C2=O)c2c(-c3ccccc3)cccc21 [Example 268, 4,6-dihydroxy-2-[(1-methyl-4-phenyl-1H-indol-3-yl)methylene]-1-benzofuran-3(2H)-one] |  | IC50 (human TOR): 0.0295 µM |
